Holding throughout (assay): Ba/F3 cell viability, Cell Titer Glo
The target of experiment [1] is EGFR L858R/T790M (Homo sapiens, UniProt P00533, L858R/T790M). The conditions noted are these: read-out: IC50 Values; Ba/F3 cells expressing EGFR L858R/T790M, 72 hours.
For experiment [2], the target named is EGFR L858R S784F (Homo sapiens, UniProt P00533, L858R/S784F). To be noted: read-out: IC50 Values; Ba/F3 cells expressing EGFR L858R S784F, 72 hours.
Experiment [3] concerns the target EGFR E709K L858R (Homo sapiens, UniProt P00533, E709K/L858R). The conditions noted are these: read-out: IC50 Values; Ba/F3 cells expressing EGFR E709K L858R, 72 hours.
Experiment [4] addresses EGFR T790M (Homo sapiens, UniProt P00533, T790M). To be noted: read-out: IC50 Values; Ba/F3 cells expressing EGFR T790M, 72 hours.
For experiment [5], the target named is EGFR Ex19del L718V (Homo sapiens, UniProt P00533, DEL746-750/L718V). To be noted: read-out: IC50 Values; Ba/F3 cells expressing EGFR Ex19del L718V, 72 hours.
The target in experiment [6] is EGFR R776C (Homo sapiens, UniProt P00533, R776C). To be noted: read-out: IC50 Values; Ba/F3 cells expressing EGFR R776C, 72 hours.
In experiment [7] the target is EGFR G719A (Homo sapiens, UniProt P00533, G719A). To be noted: read-out: IC50 Values; Ba/F3 cells expressing EGFR G719A, 72 hours.
Experiment [8] addresses EGFR L861R (Homo sapiens, UniProt P00533, L861R). The conditions noted are these: read-out: IC50 Values; Ba/F3 cells expressing EGFR L861R, 72 hours.
The target of experiment [9] is EGFR Ex19delT790M (Homo sapiens, UniProt P00533, DEL746-750/T790M). To be noted: read-out: IC50 Values; Ba/F3 cells expressing EGFR Ex19delT790M, 72 hours.
Experiment [10] deals with EGFR E709A (Homo sapiens, UniProt P00533, E709A). To be noted: read-out: IC50 Values; Ba/F3 cells expressing EGFR E709A, 72 hours.
For experiment [11], the target named is EGFR G724S T790M (Homo sapiens, UniProt P00533, G724S/T790M). To be noted: read-out: IC50 Values; Ba/F3 cells expressing EGFR G724S T790M, 72 hours.
Experiment [12] deals with EGFR K757R (Homo sapiens, UniProt P00533, K757R). To be noted: read-out: IC50 Values; Ba/F3 cells expressing EGFR K757R, 72 hours.
The target in experiment [13] is EGFR S720P (Homo sapiens, UniProt P00533, S720P). To be noted: read-out: IC50 Values; Ba/F3 cells expressing EGFR S720P, 72 hours.
Experiment [14] concerns the target EGFR L858R/V834L (Homo sapiens, UniProt P00533, L858R/V834L). The conditions noted are these: read-out: IC50 Values; Ba/F3 cells expressing EGFR L858R/V834L, 72 hours.
Experiment [15] concerns the target EGFR L747 K754del insATSPE (Homo sapiens, UniProt P00533, DEL747-749/K754E). The conditions noted are these: read-out: IC50 Values; Ba/F3 cells expressing EGFR L747 K754del insATSPE, 72 hours.
Experiment [16] deals with EGFR K754E (Homo sapiens, UniProt P00533, K754E). To be noted: read-out: IC50 Values; Ba/F3 cells expressing EGFR K754E, 72 hours.
The target in experiment [17] is EGFR L858R T790M/C797S (Homo sapiens, UniProt P00533, C797S/L858R/T790M). To be noted: read-out: IC50 Values; Ba/F3 cells expressing EGFR L858R T790M/C797S, 72 hours.
In experiment [18] the target is EGFR G719A T790M (Homo sapiens, UniProt P00533, G719A/T790M). The conditions noted are these: read-out: IC50 Values; Ba/F3 cells expressing EGFR G719A T790M, 72 hours.
In experiment [19] the target is EGFR S784F (Homo sapiens, UniProt P00533, S784F). The conditions noted are these: read-out: IC50 Values; Ba/F3 cells expressing EGFR S784F, 72 hours.
In experiment [20] the target is EGFR Ex19del G724S (Homo sapiens, UniProt P00533, DEL746-750/G724S). The conditions noted are these: read-out: IC50 Values; Ba/F3 cells expressing EGFR Ex19del G724S, 72 hours.

Chains of the proteins cited; added tags and fusions are not shown. A line that says so, or that is headed by a name, gives the form on record, which may keep a tag or linker. Residues count along the entry.
UniProt P00533, 25-1210 T790M/L858R: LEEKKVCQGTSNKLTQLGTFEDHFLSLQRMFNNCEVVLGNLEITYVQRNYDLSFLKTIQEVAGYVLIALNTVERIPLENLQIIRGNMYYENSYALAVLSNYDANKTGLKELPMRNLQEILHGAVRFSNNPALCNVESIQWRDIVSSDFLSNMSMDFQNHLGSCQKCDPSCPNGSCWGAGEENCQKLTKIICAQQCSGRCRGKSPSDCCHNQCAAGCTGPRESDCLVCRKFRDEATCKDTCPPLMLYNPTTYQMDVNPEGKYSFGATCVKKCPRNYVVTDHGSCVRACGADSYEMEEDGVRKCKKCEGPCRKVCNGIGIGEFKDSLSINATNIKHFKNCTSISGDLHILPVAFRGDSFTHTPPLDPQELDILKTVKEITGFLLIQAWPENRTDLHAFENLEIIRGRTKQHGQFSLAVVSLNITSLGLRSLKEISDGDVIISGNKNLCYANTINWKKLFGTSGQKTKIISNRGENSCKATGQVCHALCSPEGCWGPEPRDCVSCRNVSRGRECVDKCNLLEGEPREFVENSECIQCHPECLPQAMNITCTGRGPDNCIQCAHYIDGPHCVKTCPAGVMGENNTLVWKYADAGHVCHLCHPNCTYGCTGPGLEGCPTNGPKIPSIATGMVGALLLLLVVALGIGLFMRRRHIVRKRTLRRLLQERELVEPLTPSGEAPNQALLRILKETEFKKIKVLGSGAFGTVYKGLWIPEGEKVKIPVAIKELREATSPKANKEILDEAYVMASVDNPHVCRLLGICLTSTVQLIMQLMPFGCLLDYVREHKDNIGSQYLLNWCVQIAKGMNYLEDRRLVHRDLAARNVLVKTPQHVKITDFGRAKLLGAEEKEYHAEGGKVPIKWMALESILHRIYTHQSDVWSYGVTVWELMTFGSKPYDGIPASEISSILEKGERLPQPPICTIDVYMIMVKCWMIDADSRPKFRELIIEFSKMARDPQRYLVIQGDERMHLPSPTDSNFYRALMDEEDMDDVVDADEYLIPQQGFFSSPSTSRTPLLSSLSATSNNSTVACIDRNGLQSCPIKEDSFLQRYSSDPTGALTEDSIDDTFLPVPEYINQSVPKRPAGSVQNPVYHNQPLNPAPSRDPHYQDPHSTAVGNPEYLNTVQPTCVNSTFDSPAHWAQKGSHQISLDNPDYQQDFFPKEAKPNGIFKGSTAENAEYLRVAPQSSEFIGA
UniProt P00533, 25-1210 S784F/L858R: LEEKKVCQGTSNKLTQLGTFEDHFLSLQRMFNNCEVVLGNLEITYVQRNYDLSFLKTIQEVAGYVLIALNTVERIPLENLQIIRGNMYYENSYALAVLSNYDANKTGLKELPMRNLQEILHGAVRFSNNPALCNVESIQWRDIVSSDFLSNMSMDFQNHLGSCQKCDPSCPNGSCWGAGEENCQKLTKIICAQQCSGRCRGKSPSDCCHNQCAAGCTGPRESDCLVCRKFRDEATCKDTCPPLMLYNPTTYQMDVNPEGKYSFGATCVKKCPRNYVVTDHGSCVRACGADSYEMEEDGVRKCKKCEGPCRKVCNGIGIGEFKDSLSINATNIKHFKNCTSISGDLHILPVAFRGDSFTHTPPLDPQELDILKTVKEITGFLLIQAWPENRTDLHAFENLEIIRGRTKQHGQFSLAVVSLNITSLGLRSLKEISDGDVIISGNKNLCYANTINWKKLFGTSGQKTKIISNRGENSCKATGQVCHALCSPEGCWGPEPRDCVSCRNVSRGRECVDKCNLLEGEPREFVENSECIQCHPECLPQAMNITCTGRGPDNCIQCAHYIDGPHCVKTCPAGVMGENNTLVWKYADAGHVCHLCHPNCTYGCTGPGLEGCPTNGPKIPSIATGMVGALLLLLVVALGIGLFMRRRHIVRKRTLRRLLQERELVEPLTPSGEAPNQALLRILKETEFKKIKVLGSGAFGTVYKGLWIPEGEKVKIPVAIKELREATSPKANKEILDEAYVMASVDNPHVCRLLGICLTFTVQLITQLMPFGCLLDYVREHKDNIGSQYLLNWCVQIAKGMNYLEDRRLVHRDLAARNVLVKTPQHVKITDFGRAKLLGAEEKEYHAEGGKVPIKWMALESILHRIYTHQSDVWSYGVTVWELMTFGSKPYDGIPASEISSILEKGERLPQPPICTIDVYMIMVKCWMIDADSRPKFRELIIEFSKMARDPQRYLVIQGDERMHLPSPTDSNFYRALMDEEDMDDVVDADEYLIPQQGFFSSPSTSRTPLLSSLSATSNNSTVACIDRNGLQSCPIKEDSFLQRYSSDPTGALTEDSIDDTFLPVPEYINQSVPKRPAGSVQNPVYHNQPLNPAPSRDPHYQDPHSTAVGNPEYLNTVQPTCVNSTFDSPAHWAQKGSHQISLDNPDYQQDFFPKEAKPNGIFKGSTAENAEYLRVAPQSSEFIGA
UniProt P00533, 25-1210 E709K/L858R: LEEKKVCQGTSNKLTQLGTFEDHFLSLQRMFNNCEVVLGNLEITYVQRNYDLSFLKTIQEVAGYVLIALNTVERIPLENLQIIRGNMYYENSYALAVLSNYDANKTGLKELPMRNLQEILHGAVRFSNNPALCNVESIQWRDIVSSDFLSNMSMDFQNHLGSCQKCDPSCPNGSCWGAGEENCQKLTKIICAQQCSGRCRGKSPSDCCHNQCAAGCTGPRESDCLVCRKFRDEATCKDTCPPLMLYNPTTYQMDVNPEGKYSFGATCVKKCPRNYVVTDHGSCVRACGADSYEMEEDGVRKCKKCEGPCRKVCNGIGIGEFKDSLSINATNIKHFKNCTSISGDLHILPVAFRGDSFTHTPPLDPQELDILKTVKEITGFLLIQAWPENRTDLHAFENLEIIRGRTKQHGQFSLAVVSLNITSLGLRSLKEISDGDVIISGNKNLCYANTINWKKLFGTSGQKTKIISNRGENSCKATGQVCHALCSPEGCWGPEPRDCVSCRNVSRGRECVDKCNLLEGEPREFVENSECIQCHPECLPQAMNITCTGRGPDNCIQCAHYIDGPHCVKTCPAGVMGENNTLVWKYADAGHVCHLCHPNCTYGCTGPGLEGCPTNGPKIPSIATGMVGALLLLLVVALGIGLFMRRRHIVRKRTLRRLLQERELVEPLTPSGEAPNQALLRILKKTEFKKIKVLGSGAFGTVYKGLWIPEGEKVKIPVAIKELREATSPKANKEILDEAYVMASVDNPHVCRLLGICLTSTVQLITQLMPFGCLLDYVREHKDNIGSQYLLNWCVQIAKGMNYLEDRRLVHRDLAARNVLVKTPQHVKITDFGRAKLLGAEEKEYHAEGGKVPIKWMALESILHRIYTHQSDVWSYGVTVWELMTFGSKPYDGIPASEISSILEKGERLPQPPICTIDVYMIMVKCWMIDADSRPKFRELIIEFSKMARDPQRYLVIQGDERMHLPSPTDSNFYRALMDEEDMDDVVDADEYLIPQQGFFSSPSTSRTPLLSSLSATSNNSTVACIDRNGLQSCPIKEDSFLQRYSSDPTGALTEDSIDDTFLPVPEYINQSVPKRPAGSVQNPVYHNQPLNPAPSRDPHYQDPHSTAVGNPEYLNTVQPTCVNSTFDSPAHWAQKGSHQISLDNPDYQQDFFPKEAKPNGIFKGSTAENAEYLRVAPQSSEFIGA
UniProt P00533, 25-1210 T790M: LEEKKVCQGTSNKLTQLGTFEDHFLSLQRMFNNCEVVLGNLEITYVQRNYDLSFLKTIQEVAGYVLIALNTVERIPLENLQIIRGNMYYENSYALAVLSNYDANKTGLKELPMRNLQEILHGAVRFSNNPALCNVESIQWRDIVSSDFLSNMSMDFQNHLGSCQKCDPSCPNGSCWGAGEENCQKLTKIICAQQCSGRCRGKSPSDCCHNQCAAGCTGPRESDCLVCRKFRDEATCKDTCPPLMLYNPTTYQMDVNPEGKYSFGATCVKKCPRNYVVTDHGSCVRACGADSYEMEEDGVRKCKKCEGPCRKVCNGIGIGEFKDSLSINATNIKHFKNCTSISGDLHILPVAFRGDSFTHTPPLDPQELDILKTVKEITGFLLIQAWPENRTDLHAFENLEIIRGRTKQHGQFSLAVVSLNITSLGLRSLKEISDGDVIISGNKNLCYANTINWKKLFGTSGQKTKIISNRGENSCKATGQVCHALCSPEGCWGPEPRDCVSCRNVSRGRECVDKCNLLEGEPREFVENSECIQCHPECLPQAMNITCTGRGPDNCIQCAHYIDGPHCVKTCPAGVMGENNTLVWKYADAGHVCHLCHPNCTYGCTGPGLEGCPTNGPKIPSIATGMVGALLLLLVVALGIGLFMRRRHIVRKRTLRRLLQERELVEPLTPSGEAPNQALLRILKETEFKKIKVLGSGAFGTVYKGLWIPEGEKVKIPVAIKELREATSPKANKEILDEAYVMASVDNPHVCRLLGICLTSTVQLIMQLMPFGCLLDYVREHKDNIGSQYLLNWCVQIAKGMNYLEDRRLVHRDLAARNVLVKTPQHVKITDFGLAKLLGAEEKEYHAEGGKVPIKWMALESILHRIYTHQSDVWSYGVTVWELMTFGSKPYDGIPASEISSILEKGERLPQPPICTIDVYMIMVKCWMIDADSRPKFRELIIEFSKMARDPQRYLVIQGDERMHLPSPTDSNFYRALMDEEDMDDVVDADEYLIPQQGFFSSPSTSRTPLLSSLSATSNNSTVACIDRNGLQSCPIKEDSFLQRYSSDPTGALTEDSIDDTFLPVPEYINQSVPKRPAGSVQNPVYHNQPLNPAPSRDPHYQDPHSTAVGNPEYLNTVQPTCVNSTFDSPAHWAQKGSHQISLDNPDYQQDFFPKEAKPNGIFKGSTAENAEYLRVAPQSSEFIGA
UniProt P00533, with tags, fused parts or gaps L718V/DEL746-750: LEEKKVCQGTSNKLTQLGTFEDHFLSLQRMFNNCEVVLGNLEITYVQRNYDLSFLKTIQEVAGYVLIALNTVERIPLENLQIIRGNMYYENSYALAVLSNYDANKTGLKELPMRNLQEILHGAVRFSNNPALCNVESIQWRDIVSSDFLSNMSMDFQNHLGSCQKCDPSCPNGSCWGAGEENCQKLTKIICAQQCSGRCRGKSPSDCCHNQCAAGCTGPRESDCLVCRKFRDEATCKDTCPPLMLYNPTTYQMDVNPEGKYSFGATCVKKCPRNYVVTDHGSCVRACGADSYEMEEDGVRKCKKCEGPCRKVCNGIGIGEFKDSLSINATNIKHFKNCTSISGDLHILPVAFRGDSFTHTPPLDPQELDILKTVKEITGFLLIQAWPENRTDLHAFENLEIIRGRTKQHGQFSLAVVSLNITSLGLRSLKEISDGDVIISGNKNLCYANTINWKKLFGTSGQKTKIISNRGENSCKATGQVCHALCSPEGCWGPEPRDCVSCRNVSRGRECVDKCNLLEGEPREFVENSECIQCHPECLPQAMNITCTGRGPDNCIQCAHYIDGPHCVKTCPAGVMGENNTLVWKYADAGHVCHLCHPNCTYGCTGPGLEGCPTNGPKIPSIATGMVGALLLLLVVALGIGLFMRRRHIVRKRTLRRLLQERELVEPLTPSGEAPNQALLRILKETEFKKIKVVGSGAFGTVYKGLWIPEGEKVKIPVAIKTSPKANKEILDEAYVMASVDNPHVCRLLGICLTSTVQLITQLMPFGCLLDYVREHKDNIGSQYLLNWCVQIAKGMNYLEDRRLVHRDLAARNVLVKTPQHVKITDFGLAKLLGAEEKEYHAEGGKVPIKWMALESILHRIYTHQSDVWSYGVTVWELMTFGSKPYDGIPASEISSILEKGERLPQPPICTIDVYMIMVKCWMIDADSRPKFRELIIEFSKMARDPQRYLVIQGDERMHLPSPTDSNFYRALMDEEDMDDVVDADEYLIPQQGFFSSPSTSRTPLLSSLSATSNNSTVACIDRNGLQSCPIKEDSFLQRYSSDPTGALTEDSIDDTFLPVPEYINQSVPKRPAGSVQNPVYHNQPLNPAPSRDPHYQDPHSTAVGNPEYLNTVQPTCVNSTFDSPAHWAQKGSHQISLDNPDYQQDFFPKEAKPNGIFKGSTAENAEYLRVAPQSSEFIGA

`Cc1cc(C(=O)Nc2nc3cccc(Cl)c3n2[C@@H]2CCCCN(C(=O)/C=C/CN(C)C)C2)ccn1`: the IC50 in experiment [1] is 25.4 nM; in [2], 428 nM; in experiment [3], 25.8 nM; in [4], 151 nM; in [5], 86.6 nM; in experiment [6] it was 369 nM. The IC50 came out at 87.8 nM in [7]; 14.5 nM in experiment [8]; 16.4 nM in experiment [9]; 175 nM in [10]; 242 nM in experiment [11]; 624 nM in experiment [12]. The IC50 came out at 22.6 nM in experiment [13]; 14.6 nM in experiment [14]; 1.55 nM in experiment [15]; 61.6 nM in experiment [16]; 3430 nM in experiment [17]; 34.4 nM in experiment [18]. Besides, the IC50 stood at 403 nM in experiment [19] and 3020 nM in [20].

As usually defined, the IC50 is the concentration that gives 50% inhibition.

The values are drawn from patent US20260240847A1, “COMPOUNDS WITH ANTI-TUMOR ACTIVITY AGAINST CANCER CELLS BEARING TYROSINE KINASE INHIBITOR RESISTANT EGFR MUTATIONS” (BOARD OF REGENTS, THE UNIVERSITY OF TEXAS SYSTEM, priority 2019, published 2026).
